Results on 18 molecules are retold here after patent EP4768480A1, “ALKOXY THIOPHENE ACYL ARYLAMINE COMPOUNDS AND USE THEREOF” (priority 2024, dated 2025).

For the assay, the target named is T1, SMS2 (Homo sapiens, UniProt Q8NHU3).
T1 construct: CAO, Yu research team, National Protein Scientific Center (Shanghai); supplied by an outside laboratory, not a commercial vendor
T1 sequence (Q8NHU3 1-365): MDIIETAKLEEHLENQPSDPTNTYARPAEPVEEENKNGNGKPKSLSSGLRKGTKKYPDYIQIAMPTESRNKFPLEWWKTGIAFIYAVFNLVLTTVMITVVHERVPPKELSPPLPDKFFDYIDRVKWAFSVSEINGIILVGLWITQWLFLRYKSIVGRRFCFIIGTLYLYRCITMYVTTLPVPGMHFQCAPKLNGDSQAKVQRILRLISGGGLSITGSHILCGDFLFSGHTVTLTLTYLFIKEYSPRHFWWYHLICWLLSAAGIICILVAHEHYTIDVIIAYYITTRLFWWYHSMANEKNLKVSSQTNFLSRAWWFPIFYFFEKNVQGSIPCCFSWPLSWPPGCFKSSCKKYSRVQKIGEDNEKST
The assay is described as follows: SMS2 inhibitory activity in vitro, HPLC fluorescence quantitative detection (C6-NBD-ceramide to C6-NBD-SM). The format is biochemical. The conditions noted are these: for inhibition at 1 µM: read-out: Inhibition rate on SMS2 at C/µM 1. An excerpt:
• 1. Electro-thermostatic water bath, from Shanghai Yiheng Technology Co., Ltd.); • 2. Vortex Mixer, with model ID of XW-80A, from Shanghai Jingke Industrial Co., Ltd.; • 3. […] High Performance Liquid Chromatography Agilent 1100, equipped with a quaternary pump, vacuum degassing, and FLD fluorescence detector, from Agilent Technologies, Palo Alto, CA, USA; • 5. HPLC column COSMOSIL 5C18-MS-II (4.6mm I.D. X 250mm); • 6. […] The organic solvents used in the present disclosure were purchased from Shanghai National Reagent Company, wherein methanol was pure chromatography; water was ultra-pure water which is filtrated by Milli-Q pump, deionized and ultra-filtrated with 0.22 µm membrane; and other biological consumables were purchased from domestic companies; • 8. Preparation of test compound solutions: each test compound was accurately weighed and dissolved in an appropriate volume of DMSO to prepare a 10 mmol/L stock solution. The stock solution was then diluted with an appropriate volume of DMSO to achieve the desired working concentration; • 9. SMS2 pure enzyme, DDM solution and buffer solution were provided by CAO, Yu research team from National Protein Scientific Center (Shanghai).
79 µl of the diluted enzyme solution were transferred into a 1.5 mL EP tube, 1 µl of inhibitor DMSO solution were added thereto, vortexing for 15 seconds, followed by standing at room temperature for 5 minutes. 20 µl of a mixed solution of DMPC and C6-NBD-ceramide were added, vortexing for 15 seconds, and incubated at 37°C for 30 minutes. 200 µl of anhydrous ethanol were added to quench the reaction, vortexing for 15 seconds. 200 µl of the reaction solution were taken out and stored at 4°C and avoided light for HPLC detection.
The peak area values of A(sm) and A(ceramide) in the HPLC chromatogram corresponding to C6-NBD-SM and C6-NBD-Ceramide in the DMSO group and inhibitor group samples were analyzed and recorded, and the inhibition rate of the test compound was calculated according to the following formula. Inhibition rate = (Peak area values of DMSO group−Peak area values of Inhibitor group)/(Peak area values of DMSO group) × 100% [formula]

Molecules are shown by their SMILES. pIC50: −log10 of the molar value.

Turning to `CCCCCCCOc1ccccc1COc1ccsc1C(=O)Nc1cccnc1` [1-32, 3-(2-(heptyloxy)benzyloxy)-N-(pyridin-3-yl)thiophene-2-carboxamide], the inhibition at 1 µM was found to be 97%.

On to `CCCCCCCCOc1ccccc1COc1ccsc1C(=O)Nc1cccnc1` [1-31, 3-(2-(octyloxy)benzyloxy)-N-(pyridin-3-yl)thiophene-2-carboxamide], for which the inhibition at 1 µM is 96%.

Consider `CCCCCOc1ccccc1COc1ccsc1C(=O)Nc1cccnc1` [1-34, 3-(2-(pentyloxy)benzyloxy)-N-(pyridin-3-yl)thiophene-2-carboxamide], for which the inhibition at 1 µM was 95%.

By pIC50 is commonly meant −log10 of the IC50, conventionally taken in molar units. Read a high pIC50 as a small IC50. For the molecule `O=C(Nc1cccnc1)c1sccc1OCc1cc(F)ccc1Cl` [1-2, 3-(2-chloro-5-fluorobenzyloxy)-N-(pyridin-3-yl)thiophene-2-carboxamide], the pIC50 is 7.16 and the inhibition at 1 µM is 81%.

Turning to `CCCCCCOc1ccccc1COc1ccsc1C(=O)Nc1cccnc1` [1-33, 3-(2-(hexyloxy)benzyloxy)-N-(pyridin-3-yl)thiophene-2-carboxamide], the inhibition at 1 µM was 94%.

In the case of `O=C(Nc1cccnc1)c1sccc1OCc1ccccc1` [1-1, 3-benzyloxy-N-(pyridin-3-yl)thiophene-2-carboxamide], the inhibition at 1 µM was 56%.

With `CCCCCCCCCOc1ccccc1COc1ccsc1C(=O)Nc1cccnc1` [1-30, 3-(2-(nonyloxy)benzyloxy)-N-(pyridin-3-yl)thiophene-2-carboxamide], the inhibition at 1 µM came to 95%.

On to `O=C(Nc1cccnc1F)c1sccc1OCc1ccccc1` [1-90, 3-benzyloxy-N-(2-fluoropyridin-3-yl)thiophene-2-carboxamide], for which the inhibition at 1 µM turned out to be 56%.

On to `CCOc1ccccc1COc1ccsc1C(=O)Nc1cccnc1` [1-37, 3-(2-(ethoxy)benzyloxy)-N-(pyridin-3-yl)thiophene-2-carboxamide], for which the inhibition at 1 µM came out at 89%.

Turning to `O=C(Nc1cccnc1)c1sccc1OCc1cccc(Cl)c1` [1-48, 3-(3-chlorobenzyloxy)-N-(pyridin-3-yl)thiophene-2-carboxamide], the inhibition at 1 µM was 74%.

On to `O=C(Nc1cccnc1)c1sccc1OCc1ccccc1Cl` [1-47, 3-(2-chlorobenzyloxy)-N-(pyridin-3-yl)thiophene-2-carboxamide], for which the inhibition at 1 µM is 74%.

As to `CCCOc1ccccc1COc1ccsc1C(=O)Nc1cccnc1` [1-36, 3-(2-(propoxy)benzyloxy)-N-(pyridin-3-yl)thiophene-2-carboxamide], the inhibition at 1 µM was determined as 85%.

`CCCCOc1ccccc1COc1ccsc1C(=O)Nc1cccnc1` [1-35, 3-(2-(butoxy)benzyloxy)-N-(pyridin-3-yl)thiophene-2-carboxamide]: the inhibition at 1 µM stood at 91%.

As for `COc1ccccc1COc1ccsc1C(=O)Nc1cccnc1` [1-57, 3-(2-methoxybenzyloxy)-N-(pyridin-3-yl)thiophene-2-carboxamide], the inhibition at 1 µM is 87%.

Regarding `O=C(Nc1cccnc1)c1sccc1OCc1ccc(Cl)cc1` [1-49, 3-(4-chlorobenzyloxy)-N-(pyridin-3-yl)thiophene-2-carboxamide], the inhibition at 10 µM (read-out: Inhibition rate on SMS2 at C/µM 10) was determined as 51%.

With `CCCCCCCCCCCOc1ccccc1COc1ccsc1C(=O)Nc1cccnc1` [1-28, 3-(2-(undecyloxy)benzyloxy)-N-(pyridin-3-yl)thiophene-2-carboxamide], the inhibition at 1 µM turned out to be 97%.

On to `CCCCCCCCCCOc1ccccc1COc1ccsc1C(=O)Nc1cccnc1` [1-29, 3-(2-(decyloxy)benzyloxy)-N-(pyridin-3-yl)thiophene-2-carboxamide], for which the inhibition at 1 µM is 95%.

For `CCCCCCCCCCCCOc1ccccc1COc1ccsc1C(=O)Nc1cccnc1` [1-27, 3-(2-(dodecyloxy)benzyloxy)-N-(pyridin-3-yl)thiophene-2-carboxamide], the inhibition at 1 µM stood at 96%.
